Measured values as given in US11401279B2, “Pyrido[3,2-d]pyrimidine compounds as immunomodulators” (Incyte Corporation, priority 2019, dated 2022).

Amino acid sequences for entries named in this document (tags omitted). Residues count along the entry.
UniProt Q9NZQ7, 19-238 limits assumed: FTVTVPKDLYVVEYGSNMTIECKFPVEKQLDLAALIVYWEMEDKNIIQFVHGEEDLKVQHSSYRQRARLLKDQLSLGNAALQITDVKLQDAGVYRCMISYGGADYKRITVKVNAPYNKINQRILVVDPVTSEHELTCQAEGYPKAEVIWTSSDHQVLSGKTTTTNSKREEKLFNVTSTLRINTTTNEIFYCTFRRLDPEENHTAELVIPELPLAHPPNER
UniProt Q9NZQ7, 19-290 limits assumed: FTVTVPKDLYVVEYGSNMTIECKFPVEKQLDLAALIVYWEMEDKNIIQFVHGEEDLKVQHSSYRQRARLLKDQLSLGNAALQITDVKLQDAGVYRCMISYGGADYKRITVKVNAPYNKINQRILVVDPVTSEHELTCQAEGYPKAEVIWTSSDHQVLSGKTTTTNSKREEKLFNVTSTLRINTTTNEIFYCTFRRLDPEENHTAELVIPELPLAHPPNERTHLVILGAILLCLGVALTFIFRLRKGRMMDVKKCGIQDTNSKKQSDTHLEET

How the values were obtained:
[1] = molecular target: PD-1/PD-L1 (Homo sapiens (Human), UniProt Q9NZQ7); assay: Homogeneous Time-Resolved Fluorescence (HTRF) PD-1/PD-L1 binding assay; conditions: read-out: HTRF binding IC50; recombinant human PD-1 and PD-L1
Protocol: The assays were conducted in a standard black 384-well polystyrene plate with a final volume of 20 μL. Inhibitors were first serially diluted in DMSO and then added to the plate wells before the addition of other reaction components. The final concentration of DMSO in the assay was 1%. The assays were carried out at 25° C. in the PBS buffer (pH 7.4) with 0.05% Tween-20 and 0.1% BSA. Recombinant human PD-L1 protein (19-238) with a His-tag at the C-terminus was purchased from AcroBiosystems (PD1-H5229). Recombinant human PD-1 protein (25-167) with Fc tag at the C-terminus was also purchased from AcroBiosystems (PD1-H5257). PD-L1 and PD-1 proteins were diluted in the assay buffer and 10 μL was added to the plate well. Plates were centrifuged and proteins were preincubated with inhibitors for 40 minutes. The incubation was followed by the addition of 10 μL of HTRF detection buffer supplemented with Europium cryptate-labeled anti-human IgG (PerkinElmer-AD0212) specific for Fc and anti-His antibody conjugated to SureLight®-Allophycocyanin (APC, PerkinElmer-AD0059H). After centrifugation, the plate was incubated at 25° C. for 60 min. before reading on a PHERAstar FS plate reader (665 nm/620 nm ratio). Final concentrations in the assay were—3 nM PD1, 10 nM PD-L1, 1 nM europium anti-human IgG and 20 nM anti-His-Allophycocyanin. IC50 determination was performed by fitting the curve of percent control activity versus the log of the inhibitor concentration using the GraphPad Prism 5.0 software.

[2] = system: U2OS/PD-L1 cells and Jurkat-PD-1-SHP cells; assay: Src homology region 2 domain-containing phosphatase (SHP) assay; conditions: read-out: SHP IC50; PathHunter chemiluminescence, 2 hours
Protocol: U2OS/PD-L1 cells (DiscoveRx Corporation) were maintained in McCoy's 5A medium with addition of 10% FBS, 0.25 μg/mL Puromycin. After removing the culture media, the cell medium was replaced with assay medium (RPMI1640 medium with 1% FBS). The U2OS/PD-L1 cells were then added in 384-well black clear bottom assay plate (CELLCOAT® Tissue Culture Plates, Greiner Bio-One) at 5000 cells per well in 20 μL assay medium. Test compounds were prepared by serial dilution in DMSO and 125 nL compound were first transferred to the 384 REMP plate well (Thermofisher) by ECHO liquid handler (Labcyte) followed with addition of 27.5 μL assay medium. 5 µL/well compounds in the assay medium were transferred to the cell plate with 0.05% DMSO in the final assay at 0.25 μM. Jurkat-PD-1-SHP cells (DiscoveRx Corporation) were cultured in RPMI1640 medium supplemented with 10% FBS, 250 μg/mL Hygromycin B, 500 μg/mL G418. After the replacement of culture media with assay medium, 5,000 Jurkat-PD-1-SHP cells in 20 μL were dispensed into each well. The assay plate was incubated at 37° C., 5% CO2 for 2 hours before 2.5 μL PathHunter reagent 1 (DiscoveRx Corporation) were added to each well. The assay plate was shaken for 1 min at 350 rpm in the dark followed with addition of 10 μL PathHunter reagent 2 (DiscoveRx Corporation). Chemiluminescent signal was recorded with TopCount reader (Perkin Elmer) after incubation at room temperature for 1 hour. Wells with DMSO were served as the positive controls and wells containing no cells were used as negative controls. IC50 determination was performed by fitting the curve of percentage of control activity versus the log of the compound concentration using the GraphPad Prism 6.0 software.

[3] = system: PD-L1 aAPC/CHO-K1 cells and Jurkat-PD-1-NFAT effector cells; assay: Nuclear factor of activated T-cells (NFAT) assay; conditions: read-out: NFAT EC50; luminescence, 24 hours
Protocol: PD-L1 aAPC/CHO-Klcells (Promega) were maintained in F-12 medium with addition of 10% FBS, 200 μg/mL Hygromycin B, 250 μg/mL Geneticin (G418). Jurkat-PD-1-NFAT effector cells (Promega) were cultured in RPMI 1640 medium supplemented with 10% FBS, 100 μg/mL Hygromycin B, 500 μg/mL G418. The culture media of PD-L1 aAPC/CHO-K1 cells were first replaced with assay medium (RPMI1640 medium with 1% FBS). The PD-L1 aAPC/CHO-Klcells were then added in a white 384-well white clear bottom assay plate (CELLCOAT® Tissue Culture Plates, Greiner Bio-One) at 8000 per well in 10 μL assay medium. Test compounds were prepared by serial dilution in DMSO and 0.8 μL test compounds in DMSO were first transferred to the 384 REMP plate well (Thermofisher) by PlateMate Plus (Thermofisher) followed with addition of 50 μL plating medium. 5 μL compounds in the assay medium were transferred to the cells with 0.4% DMSO in the final assay at 2 μM. After removing the culture media, 10,000 Jurkat-PD-1-NFAT effector cells in 5 μL assay medium was dispensed into each well. The assay plate was incubated at 37° C., 5% CO2 for 24 hours. After the assay plate was equilibrated to room temp for 15 minutes, 20 μL/well of Bio-Glo™ reagent (Promega) were added. After 8 minutes incubation at room temperature, luminescence was read at with Pherastar microplate reader (BMG Labtech). The fold of induction (FOI) was calculated based on the ratio of luminescence normalized to the DMSO wells within each assay plate. The maximum percentage of induction was reported based on the ratio between the highest FOI of each compound and the maximum FOI of control compound within each assay plate. Wells with DMSO were served as the negative controls and wells containing control compound with the highest FOI were used as positive controls. EC50 determination was performed by fitting the curve of percent control activity versus the log of the compound concentration using the GraphPad Prism 6.0 software.

[4] = molecular target: PD-L1 (Homo sapiens (Human), UniProt Q9NZQ7); assay: PD-L1 whole blood internalization assay; conditions: read-out: Whole Blood IC50; PD-L1 internalization in human whole blood, CD14+ cells, interferon γ, 24 hour
Protocol: To determine PD-L1 internalization in human whole blood, normal human blood (Biological Specialty Corp, Colmar. Pa.) was incubated in the presence or absence of a concentration range of test compounds and 1 ng/mL human interferon γ (R&D Systems Inc. Minn. […] Blood was then stained with PD-L1 (MIH1, eBioscience; or BD Biosciences San Jose, Calif.), CD14 (Life Technologies, Carlsbad, Calif.) for 30 minutes in the dark at room temperature. Whole Blood/red cells were lysed/fixed (lysis buffer BD Biosciences) for 5 minutes at 37° C. in the dark and then centrifuged at 1600 RPM for 5 minutes. Cells were resuspended in Stain Buffer (BD Bioscience, San Jose, Calif.) and transferred into 96 well round bottom plates (Corning). Cells were gated on CD14+(BD Biosciences) and PD-L1 expression determined by mean fluorescence intensity (MFI) (BD LSRFortessa™ X-20). IC50 determination was performed by fitting the curve of compound percent inhibition versus the log of the compound concentration using the GraphPad Prism 7.0 software.

[5] = In vivo pharmacokinetics in rats; conditions: rat, cassette dosing; for Cl / Vss / t1/2: 1.0 mg/kg IV; for AUC0-inf / Cmax / F: 3.0 mg/kg PO
Protocol: For in vivo pharmacokinetic experiments, test compounds were administered to male Sprague Dawley rats or male and female Cynomolgus monkeys intravenously or via oral gavage. For intravenous (IV) dosing, test compounds were dosed at 0.5 to 1 mg/kg using a formulation of 10% dimethylacetamide (DMAC) in acidified saline via IV bolus for rat and 5 min or 10 min IV infusion for monkey. For oral (PO) dosing, test compounds were dosed at 1.0 to 3.0 mg/kg using 5% DMAC in 0.5% methylcellulose in citrate buffer (pH 3.5). Blood samples were collected at predose and various time points up to 24 hours postdose. All blood samples were collected using EDTA as the anticoagulant and centrifuged to obtain plasma samples. The plasma concentrations of test compounds were determined by LC-MS methods. The measured plasma concentrations were used to calculate PK parameters by standard noncompartmental methods using Phoenix® WinNonlin software program (version 7.0, Pharsight Corporation).
In rats and monkeys, cassette dosing of test compounds were conducted to obtain preliminary PK parameters.

IC50 [1] [nM]	IC50 [2] [nM]	IC50 [4] [nM]	Cl [5] [mL/min/kg]	Vss [5] [L/kg]	t1/2 [5] [h]	AUC0-inf [5] [µM·h]	Cmax [5] [nM]	F [5] [%]	SMILES	EC50 [3] [nM]
2.5	5.3	116							Cc1c(NC(=O)c2nc3c(n2C)CCN(CC[C@H]2CC[C@H](C(=O)O)CC2)C3)cccc1-c1cccc(Nc2nccc3cc(CN4CC[C@@H](O)C4)cnc23)c1C	27
2.2	6	90							Cc1c(Nc2nccc3cc(CN4CC[C@@](C)(O)C4)cnc23)cccc1-c1cccc(NC(=O)c2nc3c(n2C)CCN(CC[C@H]2CC[C@H](C(=O)O)CC2)C3)c1Cl	24
1.8	6.7	98							Cn1c(C(=O)Nc2cccc(-c3cccc(Nc4nccc5cc(CN6CC[C@@H](O)C6)cnc45)c3Cl)c2Cl)nc2c1CCN(CC[C@H]1CC[C@H](C(=O)O)CC1)C2	18
2.1	14	93							Cc1c(Nc2nccc3cc(CN4CC[C@H](O)C4)cnc23)cccc1-c1cccc(NC(=O)c2nc3c(n2C)CCN(C[C@H]2CC[C@@H](C(=O)O)CC2)C3)c1Cl	35
1.5	5.4	471							Cc1c(Nc2nccc3cc(CN[C@H]4CCC[C@@H]4O)cnc23)cccc1-c1cccc(NC(=O)c2nc3c(n2C)CCN(C[C@H]2CC[C@H](C(=O)O)CC2)C3)c1Cl	138
2	5.6	85	23.2	3.73	2.78	0.412	61	14	Cc1c(Nc2nccc3cc(CN4CC[C@@H](O)C4)cnc23)cccc1-c1cccc(NC(=O)c2nc3c(n2C)CCN(C[C@H]2CC[C@@H](C(=O)O)CC2)C3)c1Cl	18
< 1.5	5.7	84							Cc1c(NC(=O)c2nc3c(n2C)CCN(CC[C@H]2CC[C@H](C(=O)O)CC2)C3)cccc1-c1cccc(Nc2nccc3cc(CN4CC[C@@H](O)C4)cnc23)c1Cl	23
1.8	6.7	65							Cc1c(Nc2nccc3cc(CN4CC[C@@](C)(O)C4)cnc23)cccc1-c1cccc(NC(=O)c2nc3c(n2C)CCN(C[C@H]2CC[C@@H](C(=O)O)CC2)C3)c1Cl	21
2.7	5.1	67	25	3.82	2.55	0.205	29	7	Cc1c(Nc2nccc3cc(CN4CC[C@@H](O)C4)cnc23)cccc1-c1cccc(NC(=O)c2nc3c(n2C)CCN(CC[C@H]2CC[C@H](C(=O)O)CC2)C3)c1Cl	15
2.5	2.5	169							Cc1c(Nc2ncnc3cc(CN4CC[C@@H](O)C4)cnc23)cccc1-c1cccc(NC(=O)c2nc3c(n2C)CCN(C[C@H]2CC[C@H](C(=O)O)CC2)C3)c1Cl	37
2.5	6.9	92							Cc1c(Nc2nccc3cc(CN4CC[C@@H](O)C4)cnc23)cccc1-c1cccc(NC(=O)c2nc3c(n2C)CCN(CC[C@H]2CC[C@@H](C(=O)O)CC2)C3)c1Cl	26

SMILES	IC50 [1] [nM]	IC50 [2] [nM]	IC50 [4] [nM]	Cl [5] [mL/min/kg]	Vss [5] [L/kg]	t1/2 [5] [h]	AUC0-inf [5] [µM·h]	Cmax [5] [nM]	F [5] [%]	EC50 [3] [nM]
Cc1c(Nc2nccc3cc(CN4CCCC4)cnc23)cccc1-c1cccc(NC(=O)c2nc3c(n2C)CCN(C[C@H]2CC[C@@H](C(=O)O)CC2)C3)c1Cl	1.5	5.5	196							43
